Molecular target: T1, CB2 Receptor (Homo sapiens, UniProt P34972)
T1 construct: expressed in transfected cells; host or cells: GloSensor 22-F HEK293 cells
Experiment: cAMP measurement, forskolin-induced cAMP accumulation, CB2
Format: cell-based
Experimental: GloSensor 22-F HEK293 cells were transfected with plasmids encoding different receptors (CB1 and CB2). After 24 h, HEK293 cells were seeded at a density of 5×10^4 cells per well in 96-well plates and incubated for 8 h; then, the medium was removed, and 200 μL of serum-free DMEM medium containing 2% GloSensor cAMP substrate (Promega) was added. After 2 h incubation, the transfected cells were stimulated with different concentrations of ligands together with […]. The luminescence was recorded using a Multimode Plate Reader (En Vision, PerkinElmer).

Sequences of proteins named here, by UniProt entry; tags and fusion partners are left off.
UniProt P34972, whole entry: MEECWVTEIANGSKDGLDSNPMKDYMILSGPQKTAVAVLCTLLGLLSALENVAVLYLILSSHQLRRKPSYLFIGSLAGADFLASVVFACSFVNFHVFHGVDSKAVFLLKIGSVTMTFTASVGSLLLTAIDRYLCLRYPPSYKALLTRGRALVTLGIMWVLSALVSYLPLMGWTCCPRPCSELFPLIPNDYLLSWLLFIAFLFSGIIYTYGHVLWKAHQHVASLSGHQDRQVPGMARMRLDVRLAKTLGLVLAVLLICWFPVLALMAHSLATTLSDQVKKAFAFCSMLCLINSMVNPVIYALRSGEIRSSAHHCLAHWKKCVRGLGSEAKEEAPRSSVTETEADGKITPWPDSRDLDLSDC

## C=C(C)[C@@H]1CCC(C)=C[C@H]1c1c(O)cc(CCCCC)cc1O [CBD, (1′R,2′R)-5′-Methyl-4-pentyl-2′-(prop-1-en-2-yl)-1′,2′,3′,4′-tetra-hydro-[1,1′-biphenyl]-2,6-diol, reference compound]
  EC50: 3.5 nM

Source: patent US20260242320A1, “USE OF CANNABIDIOL DERIVATIVE IN PREPARATION OF MEDICAMENT” (priority 2023, published 2026)
